Assay results from paper PMC3656605 (Nature, 2012).

The chains behind the UniProt entries cited, without tags or fusion partners. Where a name states a change or a piece, a line headed by the entry shows the natural chain unless it says otherwise.
UniProt Q9GZT9: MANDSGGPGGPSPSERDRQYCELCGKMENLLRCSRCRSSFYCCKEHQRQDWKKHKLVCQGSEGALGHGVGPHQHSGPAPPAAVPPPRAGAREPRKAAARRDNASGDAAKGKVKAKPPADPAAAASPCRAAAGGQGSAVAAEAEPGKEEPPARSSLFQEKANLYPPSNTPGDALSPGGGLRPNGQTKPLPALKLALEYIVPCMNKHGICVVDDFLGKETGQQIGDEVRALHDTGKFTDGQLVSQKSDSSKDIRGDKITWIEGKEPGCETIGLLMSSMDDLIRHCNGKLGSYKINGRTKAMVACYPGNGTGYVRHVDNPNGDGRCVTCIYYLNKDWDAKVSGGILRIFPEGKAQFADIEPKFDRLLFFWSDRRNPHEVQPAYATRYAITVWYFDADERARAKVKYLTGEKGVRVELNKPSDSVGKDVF

Biological target: EglN1 (Homo sapiens, UniProt Q9GZT9)
Assay type: biochemical
Conditions: read-out: IC50, EglN1 inhibition; standard assay conditions, 10 μM 2-OG

## O=C(O)CC[C@@H](O)C(=O)O [R-2HG, R-2-hydroxyglutarate]
  IC50: > 5 mM
